Measured values published in ChEMBL document CHEMBL4138105, “LL-37-derived short antimicrobial peptide KR-12-a5 and its d-amino acid substituted analogs with cell selectivity, anti-biofilm activity, synergistic effect with conventional antibiotics, and anti-inflammatory activity” (Eur J Med Chem, 2017).

Columns and labels:
Type in all cases: functional
Staphylococcus aureus [1] = experiment: Antibacterial activity against methicillin resistant Staphylococcus aureus CCARM 3090 after 24 hrs; conditions: CCARM 3090, 24 h
Staphylococcus aureus [2] = experiment: Antibacterial activity against methicillin resistant Staphylococcus aureus CCARM 3089 after 24 hrs; conditions: CCARM 3089, 24 h
Pseudomonas aeruginosa [3] = experiment: Antibacterial activity against multidrug-resistant Pseudomonas aeruginosa CCARM 2109 after 24 hrs; conditions: CCARM 2109, 24 h
Pseudomonas aeruginosa [4] = experiment: Antibacterial activity against multidrug-resistant Pseudomonas aeruginosa CCARM 2095 after 24 hrs; conditions: CCARM 2095, 24 h
Staphylococcus aureus [5] = experiment: Antibacterial activity against methicillin resistant Staphylococcus aureus CCARM 3095 after 24 hrs; conditions: CCARM 3095, 24 h

## CC[C@H](C)[C@H](NC(=O)CN)C(=O)NCC(=O)N[C@@H](C)C(=O)N[C@H](C(=O)N[C@@H](CC(C)C)C(=O)N[C@@H](CCCCN)C(=O)N[C@H](C(=O)N[C@@H](CC(C)C)C(=O)N[C@H](C(=O)N[C@H](C(=O)NCC(=O)N[C@@H](CC(C)C)C(=O)N1CCC[C@H]1C(=O)N[C@@H](C)C(=O)N[C@@H](CC(C)C)C(=O)N[C@H](C(=O)N[C@@H](CO)C(=O)N[C@@H](Cc1c[nH]c2ccccc12)C(=O)N[C@H](C(=O)N[C@@H](CCCCN)C(=O)N[C@@H](CCCNC(=N)N)C(=O)N[C@@H](CCCCN)C(=O)N[C@@H](CCCNC(=N)N)C(=O)N[C@@H](CCC(N)=O)C(=O)N[C@@H](CCC(N)=O)C(N)=O)[C@@H](C)CC)[C@@H](C)CC)[C@@H](C)O)[C@@H](C)O)C(C)C)C(C)C [MELITTIN]
Staphylococcus aureus [1]
  MIC: 8 µM (≈ 22.8 µg/mL)
Staphylococcus aureus [2]
  MIC: 8 µM (≈ 22.8 µg/mL)
Pseudomonas aeruginosa [3]
  MIC: 16 µM (≈ 45.5 µg/mL)
Pseudomonas aeruginosa [4]
  MIC: 16 µM (≈ 45.5 µg/mL)
Staphylococcus aureus [5]
  MIC: 8 µM (≈ 22.8 µg/mL)

In brackets after ≈: the same amount, converted by molar mass.
